# Assay results from paper PMC3094488 (European journal of pharmacology, 2011).
# Protein sequences, listed by entry. Tags and fused reporters are not part of them.
# UniProt P47746, whole entry: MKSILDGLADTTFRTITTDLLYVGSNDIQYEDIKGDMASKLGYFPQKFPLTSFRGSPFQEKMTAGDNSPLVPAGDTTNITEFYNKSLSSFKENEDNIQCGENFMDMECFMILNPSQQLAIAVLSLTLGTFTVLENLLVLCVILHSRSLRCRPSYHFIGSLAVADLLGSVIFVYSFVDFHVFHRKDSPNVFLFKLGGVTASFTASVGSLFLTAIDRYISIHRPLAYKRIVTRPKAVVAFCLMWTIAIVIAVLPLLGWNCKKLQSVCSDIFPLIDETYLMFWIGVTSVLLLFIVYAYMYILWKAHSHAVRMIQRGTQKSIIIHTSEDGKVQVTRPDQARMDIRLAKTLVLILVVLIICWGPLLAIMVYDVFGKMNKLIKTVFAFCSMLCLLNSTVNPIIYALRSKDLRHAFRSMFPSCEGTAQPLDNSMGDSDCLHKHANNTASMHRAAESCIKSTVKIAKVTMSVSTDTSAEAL
# UniProt P20272, whole entry: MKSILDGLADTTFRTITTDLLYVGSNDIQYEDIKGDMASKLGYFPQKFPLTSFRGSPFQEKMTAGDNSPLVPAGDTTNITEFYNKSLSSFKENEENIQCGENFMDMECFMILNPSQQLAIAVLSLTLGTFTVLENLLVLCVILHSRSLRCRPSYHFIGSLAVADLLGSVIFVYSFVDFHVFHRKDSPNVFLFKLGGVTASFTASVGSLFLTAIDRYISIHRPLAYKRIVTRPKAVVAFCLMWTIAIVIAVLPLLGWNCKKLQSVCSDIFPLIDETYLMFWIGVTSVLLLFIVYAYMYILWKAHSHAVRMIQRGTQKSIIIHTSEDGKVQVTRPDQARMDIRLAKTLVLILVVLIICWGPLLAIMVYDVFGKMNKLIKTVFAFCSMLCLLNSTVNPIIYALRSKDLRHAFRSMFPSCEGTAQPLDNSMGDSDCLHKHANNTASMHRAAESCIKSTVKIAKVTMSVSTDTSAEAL
# Tests used:
# CB1 receptors [1] = target: T1, CB1 receptors (Mus musculus, UniProt P47746); conditions: 100 nM treatment; ref Straiker and Mackie, 2005; cited from earlier work
# CB1 receptors [2] = target: CB1 receptors (Rattus norvegicus, UniProt P20272); test: CB1 receptor internalization in HEK293 cells stably expressing CB1; assay type: cell-based
# CB1 receptors [3] = target: T1, CB1 receptors; test: Inhibition of EPSCs; assay type: cell-based; conditions: 1 μM rimonabant against 1 μM CP47,497-C8 or JWH073
smiles,measurement,setting,value
"Cc1c(C(=O)NN2CCCCC2)nn(-c2ccc(Cl)cc2Cl)c1-c1ccc(Cl)cc1 [rimonabant, Rimonabant]",EPSC size with rimonabant on its own,CB1 receptors [1],96 ± 4.0 % of baseline
same,CB1 surface levels with rimonabant alone,"CB1 receptors [2]; 1 μM rimonabant alone, data not shown",99.4 ± 2.7 % of basal surface levels
same,effect of rimonabant on agonist-induced CB1 internalization,CB1 receptors [2]; 1 μM rimonabant with 1 μM of each drug,prevented internalization
same,effect of rimonabant on agonist-induced EPSC inhibition,CB1 receptors [3],reversed
